Assay: Solubility evaluation (appearance and solubility)
Type: physicochemical
Description: Appearance and solubility were evaluated for N,N-dimethyl-2-(methylamino)acetoamide, N,N-dimethyl-2-(methylamino) acetoamide hydrochloride and sarcosine. Furthermore, dissolution was evaluated based on appearance after preparing a solution at room temperature. The solubilities shown in the table indicate the concentration at which dissolution was confirmed, and those results shown with a “>” symbol in the table indicate the concentration at which the substance was confirmed to dissolve, and actual solubility is greater than or equal to this concentration.

In the case of `CNCC(=O)O` [Sarcosine, reference compound], the “Appearance (Room Temperature)” value is reported as “White crystal”.
